# Laboratory results from PubChem BioAssay AID1540 (National Center for Advancing Translational Sciences (NCATS), 2009).
# The chains behind the UniProt entries cited, without tags or fusion partners.
# UniProt P14618, whole entry, looked up: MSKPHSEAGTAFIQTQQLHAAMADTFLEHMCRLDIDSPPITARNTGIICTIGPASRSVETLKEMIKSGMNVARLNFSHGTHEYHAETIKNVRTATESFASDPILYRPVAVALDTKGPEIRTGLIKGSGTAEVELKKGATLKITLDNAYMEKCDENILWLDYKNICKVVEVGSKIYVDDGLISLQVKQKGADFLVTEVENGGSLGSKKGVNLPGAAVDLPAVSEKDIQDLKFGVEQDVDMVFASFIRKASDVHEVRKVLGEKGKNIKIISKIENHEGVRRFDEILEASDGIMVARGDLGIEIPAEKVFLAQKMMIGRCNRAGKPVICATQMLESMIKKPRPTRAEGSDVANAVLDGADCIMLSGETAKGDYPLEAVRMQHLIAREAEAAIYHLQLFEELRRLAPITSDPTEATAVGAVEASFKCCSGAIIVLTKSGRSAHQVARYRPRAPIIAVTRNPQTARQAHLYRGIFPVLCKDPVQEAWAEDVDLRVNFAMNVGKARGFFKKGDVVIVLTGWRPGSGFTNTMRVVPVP
# The entries are a selection whose mix differs from that of the whole data set. Inconclusive results are not listed. Activity calls are given as the source filed them. Calls come from the whole dose curve; as a rule, active = well fitted activation curve with a large enough effect; inconclusive = small, poorly fitted or top-dose-only effect, or effect the other way; inactive = flat fitted curve, though single readings scatter.
# Molecular target: Pyruvate kinase PKM (Homo sapiens) (UniProt P14618)
# Test: Secondary assay for Activators of Human Pyruvate Kinase M2 isoform
# Settings: purified hPK-M2, LDH-coupled NADH fluorescence kinetic
# Excerpt: Confirmatory assay NIH Chemical Genomics Center [NCGC] Matthew G. Vander Heiden, M.D., Ph.D. [Harvard Medical School, 77 Avenue Louis Pasteur, Boston, MA 02115] NCGC Assay Overview: Human pyruvate kinase muscle 2 (hPK-M2)enzyme was supplied as a highly purified (>95% pure) preparation from Harvard Medical School and a secondary assay was used to evaluate compounds. This assay couples the formation of pyruvate from hPK-M2 using lactate dehydrogenase (LDH) and NADH. The depletion of NADH is followed in a fluorescent-based kinetic assay that follows the formation of pyruvate to lactate, as catalyzed LDH (described by Hannaert et al., 2002)1 Pyruvate kinase substrates, PEP and ADP, were present in the assay at 0.1 mM and 4 mM respectively. In this kinetic assay initial rates were determined by following the fluorescence of NADH depletion.
# NCGC Assay Protocol Summary: Three uL of substrate mix (final concentration, 50 mM Tris-Cl pH 8.0, 200 mM KCl, 15 mM MgCl2, 0.1 mM PEP, 4.0 mM ADP, and 0.2 mM NADH) was dispensed into black-solid 1536 well plates. 23 nL of compounds were delivered by a pin tool and 1 uL of enzyme mix (final concentrations, 10 nM hPK-M2 and 1 uM of LDH) was added. Plates were immediately placed in ViewLux (Perkin Elmer) and NADH fluorescence was determined at 30 second exposure intervals for between 3 and 6 minutes. […]
row,Compound,Potency
1,Nc1cccc(S(=O)(=O)N2CCCN(S(=O)(=O)c3ccc4c(c3)OCCO4)CC2)c1,active: 91.9 nM
